The chains behind the UniProt entries cited, without tags or fusion partners. Where a name states a change or a piece, a line headed by the entry shows the natural chain unless it says otherwise.
UniProt P31423: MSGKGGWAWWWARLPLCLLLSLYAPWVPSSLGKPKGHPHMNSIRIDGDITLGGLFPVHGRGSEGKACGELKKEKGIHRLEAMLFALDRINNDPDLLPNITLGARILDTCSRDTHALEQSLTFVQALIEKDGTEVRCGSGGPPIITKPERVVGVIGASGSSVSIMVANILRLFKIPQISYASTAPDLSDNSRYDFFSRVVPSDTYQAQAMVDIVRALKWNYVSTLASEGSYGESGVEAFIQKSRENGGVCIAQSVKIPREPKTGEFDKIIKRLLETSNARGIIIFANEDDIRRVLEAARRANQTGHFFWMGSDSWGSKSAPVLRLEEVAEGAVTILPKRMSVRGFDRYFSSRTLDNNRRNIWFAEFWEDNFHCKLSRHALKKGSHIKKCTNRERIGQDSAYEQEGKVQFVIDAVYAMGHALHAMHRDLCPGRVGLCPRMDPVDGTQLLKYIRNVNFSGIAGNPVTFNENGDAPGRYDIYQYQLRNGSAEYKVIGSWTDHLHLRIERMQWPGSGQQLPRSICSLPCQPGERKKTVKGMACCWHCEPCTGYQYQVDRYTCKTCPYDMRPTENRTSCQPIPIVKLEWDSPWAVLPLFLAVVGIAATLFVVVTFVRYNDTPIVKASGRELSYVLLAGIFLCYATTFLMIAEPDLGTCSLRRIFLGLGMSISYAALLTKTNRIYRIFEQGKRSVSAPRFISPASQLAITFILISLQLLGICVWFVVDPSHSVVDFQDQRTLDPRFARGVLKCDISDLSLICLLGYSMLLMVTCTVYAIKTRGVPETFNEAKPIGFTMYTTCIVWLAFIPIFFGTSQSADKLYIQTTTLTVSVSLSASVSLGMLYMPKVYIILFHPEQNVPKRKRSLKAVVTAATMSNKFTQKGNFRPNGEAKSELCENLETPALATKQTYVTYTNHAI

According to ChEMBL document CHEMBL3351329, “Radiosynthesis and evaluation of an 18F-labeled positron emission tomography (PET) radioligand for metabotropic glutamate receptor subtype 4 (mGlu4)” (J Med Chem, 2014):

Target: Metabotropic glutamate receptor 4 (Rattus norvegicus, UniProt P31423)
Test: Displacement of [3H]ML128 from rat mGlu4 receptor expressed in CHO cells after 30 mins by liquid scintillation counting analysis
Format: cell-based
In short: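 Whole freshly harvested CHO cells stably expressing rat mGlu4 (G418-selected), 50 000 per tube, incubated with 10 nM [3H]1 plus competitor (0.01 nM–10 μM) 30 min at room temperature. Cells pelleted at 4 °C, washed three times with cold medium, lysed in 0.5% NaOH at 56 °C, then counted by liquid scintillation. Nonspecific binding defined with 10 μM unlabeled 1. Triplicates.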

## COc1cc(NC(=O)c2ccccn2)ccc1Cl
  IC50: 12.8 nM
